Measured values as given in US20150141411A1, “SUBSTITUTED 3,4-DIHYDRO-2H-PYRIDO[1,2-A]PYRAZINE-1,6-DIONE DERIVATIVES USEFUL FOR THE TREATMENT OF (INTER ALIA) ALZHEIMER'S DISEASE” (Janssen Pharmaceuticals, Inc., priority 2012, published 2015).

Legend:
Settings in all cases: dose 30 mg/kg oral dosing, brain soluble fraction, animals sacrificed after 4 h, untreated animals (Ctrl) set at 100
Aβ38 = experiment: In vivo efficacy: brain soluble Aβ38 in non-transgenic rodents (ELISA)
Text: (§1) To determine whether acute administration of an Aβ38 increasing agents would increase Aβ38 levels in vivo, non-transgenic rodents, e.g. mice or rats were used. Animals treated with the Aβ38 increasing agents were examined and compared to those untreated or treated with vehicle and brain levels of soluble Aβ38 and total Aβ were quantitated by standard techniques, for example, using ELISA. Treatment periods varied from hours (h) to days and were adjusted based on the results of the Aβ38 increase once a time course of onset of effect could be established.
A typical protocol for measuring Aβ38 increase in vivo is shown but it is only one of many variations that could be used to optimize the levels of detectable Aβ. […] After 4 h, the animals were sacrificed and Aβ38 levels were analysed.
(§2) Blood was collected by decapitation and exsanguinations in EDTA-treated collection tubes. […] The left hemisphere was stored at −18° C. for quantitative analysis of test compound levels. […]
(§3) Mouse brains from non-transgenic animals were resuspended in 8 volumes of 0.4% DEA (diethylamine)/50 mM NaCl containing protease inhibitors (Roche-11873580001 or 04693159001) per gram of tissue, e.g. for 0.158 g brain, add 1.264 ml of 0.4% DEA. […] Nine parts of supernatant were neutralized with 1 part 0.5 M Tris-HCl pH 6.8 and used to quantify Aβ total and Aβ38. […]

Aβtotal = experiment: In vivo efficacy: brain soluble Aβtotal in non-transgenic rodents (ELISA)
Text: as §1, with “Aβ42 lowering agent” for “Aβ38 increasing agents”, “reduce Aβ42” for “increase Aβ38”, “Aβ42” for “Aβ38”, “Aβ42 lowering” for “Aβ38 increase”
(§4) A typical protocol for measuring Aβ42 lowering in vivo is shown but it is only one of many variations that could be used to optimize the levels of detectable Aβ. […] After 4 h, the animals were sacrificed and Aβ42 levels were analysed.
as §2
as §3, with “Aβtotal” for “Aβ total”, “Aβ42.” for “Aβ38.”

Aβ42 = experiment: In vivo efficacy: brain soluble Aβ42 in non-transgenic rodents (ELISA)
Text: as §1, with “Aβ42 lowering agent” for “Aβ38 increasing agents”, “reduce Aβ42” for “increase Aβ38”, “Aβ42” for “Aβ38”, “Aβ42 lowering” for “Aβ38 increase”
as §4, §2
as §3, with “Aβtotal” for “Aβ total”, “Aβ42.” for “Aβ38.”

Q: Which results are given for `Cc1cn(-c2ccc3n(c2=O)C[C@H](C)N(Cc2ccc(Cl)c(Cl)c2)C3=O)cn1`?
A: Aβ38 (% vs Ctrl)_Mean (Aβ38): 83 % vs Ctrl; Aβtotal (% vs Ctrl)_Mean (Aβtotal): 98 % vs Ctrl; Aβ42 (% vs Ctrl)_Mean (Aβ42): 76 % vs Ctrl
